Reference: publication PMC9962794, “A Novel and Functionally Diverse Class of Acetylcholine-Gated Ion Channels” (The Journal of Neuroscience, 2023)

The chains behind the UniProt entries cited, without tags or fusion partners. Residues count along the entry.
UniProt Q21005, 25-466: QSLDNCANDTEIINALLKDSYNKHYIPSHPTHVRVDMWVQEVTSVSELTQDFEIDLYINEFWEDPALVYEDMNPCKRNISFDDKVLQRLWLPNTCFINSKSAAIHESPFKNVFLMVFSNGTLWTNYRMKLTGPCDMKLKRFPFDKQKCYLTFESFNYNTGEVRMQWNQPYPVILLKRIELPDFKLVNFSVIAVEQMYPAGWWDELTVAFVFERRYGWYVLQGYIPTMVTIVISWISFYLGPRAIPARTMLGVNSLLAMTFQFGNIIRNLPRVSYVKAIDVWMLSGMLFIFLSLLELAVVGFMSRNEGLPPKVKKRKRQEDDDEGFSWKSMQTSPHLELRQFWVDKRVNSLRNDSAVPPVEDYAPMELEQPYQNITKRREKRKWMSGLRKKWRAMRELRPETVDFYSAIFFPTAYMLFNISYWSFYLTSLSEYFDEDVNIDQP

Target: ACC-1 (Caenorhabditis elegans, UniProt Q21005)
Settings: agonist; ND96, clamped at -60 mV; ACC-1 expressed alone

CC(=O)OCC[N+](C)(C)C [acetylcholine]
EC50: ACh-induced dose–response curves for oocytes expressing ACC-1 alone or in combination with LGC-47
